Data as given in patent US20060160798A1, “Viral polymerase inhibitors” (Boehringer Ingelheim (Canada) Ltd., priority 2001, published 2006).

The molecules below were run against hepatitis C virus RNA dependant polymerase (NS5B) (Hepatitis C virus genotype 1b, UniProt P26663) (assay: biochemical). Details: IC50, HCV NS5B polymerase, 10 nM enzyme, 1.5 hours at room temperature.

`O=C(O)/C=C/c1ccc(NC(=O)C2(NC(=O)c3ccc4c(C5CCCC5)c(-c5ccccn5)sc4c3)CCC2)cc1` [Entry 8001] and `O=C(O)/C=C/c1ccc(NC(=O)C2(NC(=O)c3ccc4c(C5CCCC5)c(-c5ccccn5)oc4c3)CCC2)cc1` [Entry 8005] fall in the same range of IC50: 1000 to 10000 nM for the first, 1000 to 10000 nM for the second.

First: CC(C)(NC(=O)c1ccc2c(C3CCCC3)c(-c3ccccn3)sc2c1)C(=O)Nc1ccc(/C=C/C(=O)O)cc1 [Entry 8002]
Second: CC(C)(NC(=O)c1ccc2c(C3CCCC3)c(-c3ccoc3)sc2c1)C(=O)Nc1ccc(/C=C/C(=O)O)cc1 [Entry 8004]
The IC50 of the first is higher: 1000 to 10000 nM for the first, less than 500 nM for the second.

For `O=C(O)/C=C/c1ccc(NC(=O)C2(NC(=O)c3ccc4c(C5CCCC5)c(-c5ccoc5)sc4c3)CCC2)cc1` [Entry 8003], the IC50 was 500 to 1000 nM.

Same assay, conditions: IC50, Table 7

`C/C(=C\c1ccc(NC(=O)C2(NC(=O)c3ccc4c(C5CCCC5)c(-c5cccc(C)n5)n(C)c4c3)CCC2)cc1)C(=O)O` [Entry 7022] and `C/C(=C\c1ccc(NC(=O)C2(NC(=O)c3ccc4c(C5CCCC5)c(-c5cccc(N)n5)n(C)c4c3)CCC2)cc1)C(=O)O` [Entry 7026] cannot be ordered by IC50: less than 500 nM for the first, less than 500 nM for the second.

`Cc1cccc(-c2c(C3CCCC3)c3ccc(C(=O)NC4(C(=O)Nc5ccc6c(c5)cc(C(=O)O)n6C)CCC4)cc3n2C)n1` [Entry 7023] and `Cn1c(C(=O)O)cc2cc(NC(=O)C3(NC(=O)c4ccc5c(C6CCCC6)c(-c6cccc(N)n6)n(C)c5c4)CCC3)ccc21` [Entry 7027] cannot be ordered by IC50: less than 500 nM for the first, less than 500 nM for the second.

`Cn1c(-c2cccc(N)n2)c(C2CCCC2)c2ccc(C(=O)NC3(C(=O)Nc4ccc(-c5ccc(C(=O)O)o5)cc4)CCC3)cc21` [Entry 7024] and `Cn1c(-c2cccc(N)n2)c(C2CCCC2)c2ccc(C(=O)NC3(C(=O)Nc4ccc(-c5ccc(C(=O)O)o5)cc4)CCCC3)cc21` [Entry 7025] cannot be ordered by IC50: less than 500 nM for the first, less than 500 nM for the second.

`Cc1ccc(-c2c(C3CCCC3)c3ccc(C(=O)NC4(C(=O)Nc5ccc(-c6ccc(C(=O)O)o6)cc5)CCC4)cc3n2C)nc1` [Entry 7028] and `Cc1ccc(-c2c(C3CCCC3)c3ccc(C(=O)NC4(C(=O)Nc5ccc(-c6ccc(C(=O)O)o6)cc5)CCCC4)cc3n2C)nc1` [Entry 7029] cannot be ordered by IC50: less than 500 nM for the first, less than 500 nM for the second.

`C/C(=C\c1ccc(NC(=O)C2(NC(=O)c3ccc4c(C5CCCC5)c(-c5ccc(C)cn5)n(C)c4c3)CCC2)cc1)C(=O)O` [Entry 7030] and `C/C(=C\c1ccc(NC(=O)C2(NC(=O)c3ccc4c(C5CCCC5)c(-c5ccc(C)nc5)n(C)c4c3)CCC2)cc1)C(=O)O` [Entry 7034] cannot be ordered by IC50: less than 500 nM for the first, less than 500 nM for the second.

`Cc1ccc(-c2c(C3CCCC3)c3ccc(C(=O)NC4(C(=O)Nc5ccc6c(c5)cc(C(=O)O)n6C)CCC4)cc3n2C)nc1` [Entry 7031] and `Cc1ccc(-c2c(C3CCCC3)c3ccc(C(=O)NC4(C(=O)Nc5ccc6c(c5)cc(C(=O)O)n6C)CCC4)cc3n2C)cn1` [Entry 7035] cannot be ordered by IC50: less than 500 nM for the first, less than 500 nM for the second.

`Cc1ccc(-c2c(C3CCCC3)c3ccc(C(=O)NC4(C(=O)Nc5ccc(-c6ccc(C(=O)O)o6)cc5)CCC4)cc3n2C)cn1` [Entry 7032] and `Cn1c(-c2ccncc2)c(C2CCCC2)c2ccc(C(=O)NC3(C(=O)Nc4ccc(-c5ccc(C(=O)O)o5)cc4)CCC3)cc21` [Entry 7040] cannot be ordered by IC50: less than 500 nM for the first, less than 500 nM for the second.

`Cn1c(-c2cnccn2)c(C2CCCC2)c2ccc(C(=O)NC3(C(=O)Nc4ccc(-c5ccc(C(=O)O)o5)cc4)CCC3)cc21` [Entry 7036] and `Cn1c(-c2cnccn2)c(C2CCCC2)c2ccc(C(=O)NC3(C(=O)Nc4ccc(-c5ccc(C(=O)O)o5)cc4)CCCC3)cc21` [Entry 7037] cannot be ordered by IC50: less than 500 nM for the first, less than 500 nM for the second.

First: C/C(=C\c1ccc(NC(=O)C2(NC(=O)c3ccc4c(C5CCCC5)c(-c5cnccn5)n(C)c4c3)CCC2)cc1)C(=O)O [Entry 7038]
Second: CCc1ccnc(-c2c(C3CCCC3)c3ccc(C(=O)NC4(C(=O)Nc5ccc(/C=C(\C)C(=O)O)cc5)CCC4)cc3n2C)c1 [Entry 7044]
The IC50 of the first is lower: less than 500 nM for the first, 1000 to 10000 nM for the second.

`Cn1c(-c2ccncc2)c(C2CCCC2)c2ccc(C(=O)NC3(C(=O)Nc4ccc(-c5ccc(C(=O)O)o5)cc4)CCCC3)cc21` [Entry 7041] and `Cn1c(-c2ccsc2)c(C2CCCC2)c2ccc(C(=O)NC3(C(=O)Nc4ccc(-c5ccc(C(=O)O)o5)cc4)CCCC3)cc21` [Entry 7052] cannot be ordered by IC50: less than 500 nM for the first, less than 500 nM for the second.

`CCc1ccnc(-c2c(C3CCCC3)c3ccc(C(=O)NC4(C(=O)Nc5ccc(-c6ccc(C(=O)O)o6)cc5)CCC4)cc3n2C)c1` [Entry 7042] and `CCc1ccnc(-c2c(C3CCCC3)c3ccc(C(=O)NC4(C(=O)Nc5ccc(-c6ccc(C(=O)O)o6)cc5)CCCC4)cc3n2C)c1` [Entry 7043] fall in the same range of IC50: 1000 to 10000 nM for the first, 1000 to 10000 nM for the second.

First: CCc1ccnc(-c2c(C3CCCC3)c3ccc(C(=O)NC4(C(=O)Nc5ccc6c(c5)cc(C(=O)O)n6C)CCC4)cc3n2C)c1 [Entry 7045]
Second: Cn1c(C(=O)O)cc2cc(NC(=O)C3(NC(=O)c4ccc5c(C6CCCC6)c(-c6ccsc6)n(C)c5c4)CCC3)ccc21 [Entry 7054]
The IC50 of the first is higher: 1000 to 10000 nM for the first, less than 500 nM for the second. The second is the more potent here.

`CC(=O)Nc1c(C(=O)O)sc2ccc(NC(=O)C3(NC(=O)c4ccc5c(C6CCCC6)c(-c6ccccn6)n(C)c5c4)CCC3)cc12` [Entry 7046] and `Cc1c(C(=O)O)sc2ccc(NC(=O)C3(NC(=O)c4ccc5c(C6CCCC6)c(-c6ccccn6)n(C)c5c4)CCC3)cc12` [Entry 7064] cannot be ordered by IC50: less than 500 nM for the first, less than 500 nM for the second.

`Cn1c(-c2nccs2)c(C2CCCC2)c2ccc(C(=O)NC3(C(=O)Nc4ccc(-c5ccc(C(=O)O)o5)cc4)CCC3)cc21` [Entry 7047] and `Cn1c(-c2nccs2)c(C2CCCC2)c2ccc(C(=O)NC3(C(=O)Nc4ccc(-c5ccc(C(=O)O)o5)cc4)CCCC3)cc21` [Entry 7048] cannot be ordered by IC50: less than 500 nM for the first, less than 500 nM for the second.

`C/C(=C\c1ccc(NC(=O)C2(NC(=O)c3ccc4c(C5CCCC5)c(-c5nccs5)n(C)c4c3)CCC2)cc1)C(=O)O` [Entry 7049] and `C/C(=C\c1ccc(NC(=O)C2(NC(=O)c3ccc4c(C5CCCC5)c(-c5ccsc5)n(C)c4c3)CCC2)cc1)C(=O)O` [Entry 7053] cannot be ordered by IC50: less than 500 nM for the first, less than 500 nM for the second.

`Cn1c(-c2cccc(N)c2)c(C2CCCC2)c2ccc(C(=O)NC3(C(=O)Nc4ccc(-c5ccc(C(=O)O)o5)cc4)CCC3)cc21` [Entry 7050] and `Cn1c(C(=O)O)cc2cc(NC(=O)C3(NC(=O)c4ccc5c(C6CCCC6)c(-c6ccc(N)cc6)n(C)c5c4)CCC3)ccc21` [Entry 7051] cannot be ordered by IC50: less than 500 nM for the first, less than 500 nM for the second.

First: Cn1c(-c2ccccn2)c(C2CCCC2)c2ccc(C(=O)NC3(C(=O)Nc4ccc(-c5cncnc5)cc4)CCC3)cc21 [Entry 7055]
Second: CN1CC[C@@](NC(=O)c2ccc3c(C4CCCC4)c(-c4ccccn4)n(C)c3c2)(C(=O)Nc2ccc(-c3cncnc3)cc2)C1 [Entry 7069]
The IC50 of the first is higher: 500 to 1000 nM for the first, less than 500 nM for the second. The second is the more potent here.

First: Cn1c(-c2ccccn2)c(C2CCCC2)c2ccc(C(=O)NC(C)(C)C(=O)Nc3nc4cc(C(=O)O)ccc4n3C3CCCCC3)cc21 [Entry 7056]
Second: Cn1c(-c2ccccn2)c(C2CCCC2)c2ccc(C(=O)NC3(C(=O)Nc4nc5cc(C(=O)O)ccc5[nH]4)CCC3)cc21 [Entry 7062]
The IC50 of the first is higher: 1000 to 10000 nM for the first, less than 500 nM for the second. The second is the more potent here.

`Cc1c(C(=O)O)sc2ccc(NC(=O)[C@]3(NC(=O)c4ccc5c(C6CCCC6)c(-c6ccccn6)n(C)c5c4)CCN(C)C3)cc12` [Entry 7057] and `Cc1c(C(=O)O)sc2ccc(NC(=O)[C@]3(NC(=O)c4ccc5c(C6CCCC6)c(-c6cnccn6)n(C)c5c4)CCN(C)C3)cc12` [Entry 7061] cannot be ordered by IC50: less than 500 nM for the first, less than 500 nM for the second.

`CN1CC[C@@](NC(=O)c2ccc3c(C4CCCC4)c(-c4ccccn4)n(C)c3c2)(C(=O)Nc2ccc(/C=C/C(=O)O)cc2)C1` [Entry 7058] and `CC(C)N1CCC(NC(=O)c2ccc3c(C4CCCC4)c(-c4ccccn4)n(C)c3c2)(C(=O)Nc2ccc(C=CC(=O)O)cc2)C1` (centres unmarked) [Entry 7060] cannot be ordered by IC50: less than 500 nM for the first, less than 500 nM for the second.

First: Cn1c(-c2ccccn2)c(C2CCCC2)c2ccc(C(=O)N[C@@]3(C(=O)Nc4ccc(-c5cnc(N)nc5)cc4)CCNC3)cc21 [Entry 7059]
Second: Cn1c(-c2ccccn2)c(C2CCCC2)c2ccc(C(=O)NC3(C(=O)Nc4ccc(-c5cnc(N)nc5)cc4)CCC3)cc21 [Entry 7065]
The IC50 of the first is lower: less than 500 nM for the first, 500 to 1000 nM for the second. The first is the more potent here.

Compared with `CN(C)c1csc2ccc(NC(=O)C3(NC(=O)c4ccc5c(C6CCCC6)c(-c6ccccn6)n(C)c5c4)CCC3)cc12` [Entry 7063], `Cn1c(-c2ccccn2)c(C2CCCC2)c2ccc(C(=O)NC3(C(=O)Nc4cccc(O)c4)CCC3)cc21` [Entry 7071] is lower in IC50: 500 to 1000 nM for the first, less than 500 nM for the second.

First: Cc1nc(-c2ccc(C(=O)O)s2)ccc1NC(=O)C1(NC(=O)c2ccc3c(C4CCCC4)c(-c4ccccn4)n(C)c3c2)CCC1 [Entry 7066]
Second: Cn1c(-c2ccccn2)c(C2CCCC2)c2ccc(C(=O)NC3(C(=O)Nc4ccc(C(=O)O)cc4)CCC3)cc21 [Entry 7083]
The IC50 of the first is higher: 1000 to 10000 nM for the first, less than 500 nM for the second.

`CN1CC[C@@](NC(=O)c2ccc3c(C4CCCC4)c(-c4ccccn4)n(C)c3c2)(C(=O)Nc2ccc(-c3cnc(N)nc3)cc2)C1` [Entry 7067] and `CN1CCC(NC(=O)c2ccc3c(C4CCCC4)c(-c4ccccn4)n(C)c3c2)(C(=O)Nc2ccc(-c3csc(N)n3)cc2)C1` (centres unmarked) [Entry 7075] cannot be ordered by IC50: less than 500 nM for the first, less than 500 nM for the second.

`Cn1c(-c2ccccn2)c(C2CCCC2)c2ccc(C(=O)NC3(C(=O)Nc4ccc(S(N)(=O)=O)cc4)CCC3)cc21` [Entry 7068] and `Cn1c(-c2ccccn2)c(C2CCCC2)c2ccc(C(=O)NC3(C(=O)Nc4ccc(O)cc4)CCC3)cc21` [Entry 7072] cannot be ordered by IC50: less than 500 nM for the first, less than 500 nM for the second.

First: Cn1c(-c2ccccn2)c(C2CCCC2)c2ccc(C(=O)NC3(C(=O)Nc4ccc(C#N)cc4)CCC3)cc21 [Entry 7070]
Second: Cn1c(-c2ccccn2)c(C2CCCC2)c2ccc(C(=O)NC3(C(=O)Nc4ccc(C(N)=O)cc4)CCC3)cc21 [Entry 7076]
The IC50 of the first is higher: 500 to 1000 nM for the first, less than 500 nM for the second. The second is the more potent here.

First: Cn1c(-c2ccccn2)c(C2CCCC2)c2ccc(C(=O)NC3(C(=O)Nc4ccccc4)CCC3)cc21 [Entry 7073]
Second: Cn1c(-c2ccccn2)c(C2CCCC2)c2ccc(C(=O)NC3(C(=O)Nc4ccc5[nH]ccc5c4)CCC3)cc21 [Entry 7077]
The IC50 of the first is higher: 500 to 1000 nM for the first, less than 500 nM for the second. The second is the more potent here.

First: Cn1c(-c2ccccn2)c(C2CCCC2)c2ccc(C(=O)NC3(C(=O)Nc4ccc(Cc5nnn[nH]5)cc4)CCC3)cc21 [Entry 7078]
Second: Cn1c(-c2ccccn2)c(C2CCCC2)c2ccc(C(=O)NC3(C(=O)Nc4ccc(-c5nnn[nH]5)cc4)CCC3)cc21 [Entry 7079]
The IC50 of the first is higher: 500 to 1000 nM for the first, less than 500 nM for the second.

`Cn1c(-c2ccccn2)c(C2CCCC2)c2ccc(C(=O)NC3(C(=O)Nc4nc5ccc(C(=O)O)cc5s4)CCC3)cc21` [Entry 7082] was tested, and the IC50 was less than 500 nM.
